Yeast mating assay 2: variants of the scFv Ab-91

Target: peptide PDVDLGDISGINAS, taken from heptad repeat 2 (HR2) of SARS-CoV-2 spike.

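Variants in AAYL51 differ from the parent at up to three CDR positions; double and triple changes were sampled at random. The scFvs were displayed on barcoded MATa yeast, the peptide on MATalpha yeast. Binding brings cells together so that they mate, and sequencing counts the barcode pairs among the diploids. Each replicate has its own calibration line, from reference interactions of the BCL2 family. Mating was done three times.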

Parent scFv Ab-91: VL joined to VH by the linker GGGGSGGGGSGGGGS. Changes lie in the heavy chain CDRs alone.
VL: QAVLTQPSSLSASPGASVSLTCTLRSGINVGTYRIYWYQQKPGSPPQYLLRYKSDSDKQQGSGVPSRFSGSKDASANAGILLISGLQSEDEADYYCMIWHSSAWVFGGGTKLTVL
VH: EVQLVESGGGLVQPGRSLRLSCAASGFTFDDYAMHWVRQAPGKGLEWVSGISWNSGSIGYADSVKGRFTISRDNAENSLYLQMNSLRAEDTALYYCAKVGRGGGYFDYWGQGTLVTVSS

Each variant is given by its three heavy chain CDRs, as the data file delimits them; those of the parent are GFTFDDYAMH, GISWNSGSIGYADSVK, VGRGGGYFDY.
Affinities are written as log10 Kd with Kd in nM; a lower number is a better binder.
The mean shown is taken over the replicates in which the pair was detected.
Where no diploid with the target was found in that replicate, the entry reads "ND": below detection, most likely a poor binder, though not proof of it.
For reference, the parent read 1.86 as the reference entry and 0.88 as a member of this library.
Empty control strains, which show no peptide, gave a signal in 21% of pairings with library AAYL51; the median was 4.54 and 95% of these signals were weaker than 3.26. No background was subtracted. For each scFv, signals with the empty controls are counted beside the result, with their mean in brackets.

| # | CDR-H1 | CDR-H2 | CDR-H3 | replicates, log10 nM | mean, log10 nM | empty controls |
|---|---|---|---|---|---|---|
| 1 | GFTFDDYAMH | GISWMFGSIGYADSVD | VGRGGGYFDY | ND 4.49 ND | 4.49 | 2/9 (5.25) |
| 2 | GFTSDDYTMH | GISWNSGSICYADSVK | VGRGGGYFDY | ND 5.89 ND | 5.89 | 4/9 (4.13) |
| 3 | GFTFHDYAMH | GISWNSGSIGYADSVK | VGFKGGYFDY | 2.24 2.12 2.05 | 2.14 | 3/9 (4.17) |
| 4 | GFTFDDYNMH | GISCNSGSITYADSVK | VGRGGGYFDY | ND ND ND | ND | 6/9 (5.61) |
| 5 | GFTFDHYAMH | GISVNSGSIGYADSVK | VGRKGGYFDY | ND ND ND | ND | 1/9 (4.59) |
| 6 | TFTFDDYAMS | GISWNSGSIGYADSVK | VHRGGGYFDY | 4.41 ND ND | 4.41 | 5/9 (4.53) |
| 7 | GCTFDDYAMH | GISWNSGSIGYADSVK | NGRGGGYFDG | ND ND ND | ND | 1/9 (4.14) |
| 8 | GFTFDDYAMH | GISWNSKSIGYASSVK | VGRGGGYFDY | 2.72 2.52 2.61 | 2.61 | 3/9 (4.20) |
| 9 | GFTFDDYAMP | GISWNSGSIGYAGSVK | VGRGGGYFCY | ND ND ND | ND | 0/9 |
| 10 | GFTFDDYAMH | GTSWNSASIRYADSVK | VGRGGGYFDY | ND ND ND | ND | 0/9 |
| 11 | GFPFDDYSMH | GISWNSGSRGYADSVK | VGRGGGYFDY | 2.61 3.18 3.07 | 2.95 | 0/9 |
| 12 | GFFFDDYAMH | GISWNSGSIGYADRRK | VGRGGGYFDY | ND 5.98 5.06 | 5.52 | 1/9 (4.08) |
| 13 | GFTFDDYAMH | GISWNSGFIGYADSVK | VGEGGGYEDY | 4.20 ND ND | 4.20 | 2/9 (4.28) |
| 14 | GFTFADYAMH | GISWCSGRIGYADSVK | VGRGGGYFDY | ND 4.32 5.35 | 4.84 | 1/9 (4.16) |
| 15 | GFTFDDYMMT | GISWNSGSIGYADSVK | VGDGGGYFDY | ND ND ND | ND | 0/9 |
| 16 | GFTFDDYWMH | GISWNSNSIGYADSVK | VGRGGGYFDY | ND ND ND | ND | 1/9 (3.67) |
| 17 | GFRFDDYAAH | GIIWNSGSIGYADSVK | VGRGGGYFDY | 4.61 ND ND | 4.61 | 2/9 (5.16) |
| 18 | GFTFDDYANH | GISWCSGSIGYADSVK | VGRGGGYFDS | ND ND ND | ND | 1/9 (4.00) |
| 19 | GCTFDDYAMH | GISWNSGSIGYNDSVK | VGRGGGYFRY | ND ND ND | ND | 1/9 (4.01) |
| 20 | GFTFDDYAMH | GVSDNSGSIGYADSVK | VGRGGGYFDY | 4.59 5.15 ND | 4.87 | 3/9 (4.11) |
| 21 | GFTFDDYAMH | GISWNSGSIGYLDSVK | VHRGGGYFDP | ND 4.67 4.69 | 4.68 | 2/9 (4.93) |
| 22 | GFTFDDYAMW | GISWNSGSIGYAKSVK | VGRGGGYFLY | ND ND ND | ND | 1/9 (3.50) |
| 23 | GFTFDDYAMH | GRSWNSGSIGYADSVK | VGRDGGYFDY | 4.00 5.15 ND | 4.57 | 2/9 (4.55) |
| 24 | GFTFDWYAMH | GESWNSGSIGYADSVK | VGRGNGYFDY | ND ND ND | ND | 0/9 |
| 25 | GWFFDDYAMH | GISWNSGLIGYADSVK | VGRGGGYFDY | ND 4.31 ND | 4.31 | 0/9 |
| 26 | GFTFDDYAMH | GISWNGHSIGYADSVY | VGRGGGYFDY | 3.15 2.51 2.65 | 2.77 | 4/9 (4.17) |
| 27 | GFTFDDYAMA | GISWNSGSCGYADTVK | VGRGGGYFDY | 6.70 5.39 5.85 | 5.98 | 6/9 (5.07) |
| 28 | GFTFDDYAMH | GISSNSGSIGYADSVK | VGRGGTYFSY | ND ND ND | ND | 0/9 |
| 29 | GFTFDDYALH | GISWNSGSIGYRDSVK | VGRGGGCFDY | ND 3.21 ND | 3.21 | 0/9 |
| 30 | GFTFDDYMMH | GISWNSTSIGYADSVK | DGRGGGYFDY | 4.15 ND 3.76 | 3.96 | 2/9 (4.45) |
| 31 | AFTFDDYAMH | GISWNSGSIGYADSVK | VGREGGYFDY | 4.82 ND ND | 4.82 | 4/9 (3.89) |
| 32 | GFTFDDYAMH | GVSWNSFSIGYADSVK | VGRGGGYFRY | ND 5.08 ND | 5.08 | 5/9 (4.22) |
| 33 | GFTFDDYAMH | GITWNSGSIGYADSHC | VGRGGGYFDY | ND ND ND | ND | 0/9 |
| 34 | GFTFDDYAMH | GGSWNSGSIGYADSVK | VGRGGGHFDY | 4.85 4.70 ND | 4.77 | 1/9 (4.75) |
| 35 | GFTFDDYAMH | GGSCNSGSIGYADSVK | VGRGGFYFDY | 4.53 6.15 5.57 | 5.42 | 3/9 (5.16) |
| 36 | GFTFDDYAMH | GYTWNSGSIGTADSVK | VGRGGGYFDY | ND ND ND | ND | 0/9 |
| 37 | GFTFDDYRMH | GISWNSGSIGEADSVK | VGRGGGYFDY | ND ND ND | ND | 2/9 (3.80) |
| 38 | GFTFDDYAMH | GIAWNSGSIGYADSVK | HGRGGGYFDY | 4.58 ND ND | 4.58 | 3/9 (4.92) |
| 39 | GFTFDEYAMH | GISWNSGSIGYADSVK | VPRGGGYFDA | 4.43 ND ND | 4.43 | 5/9 (4.79) |
| 40 | GDTFDDYAMH | GISWNSGSIGYADMVF | VGRGGGYFDY | ND ND ND | ND | 0/9 |
| 41 | GITFDDYAMH | GISWNYGSIGYADSVK | VGRGGGYFDY | 3.25 ND ND | 3.25 | 2/9 (3.45) |
| 42 | GFTFDDYAMH | GCSCNSGSIGYADSVK | VQRGGGYFDY | ND 4.14 ND | 4.14 | 1/9 (3.27) |

From the AlphaSeq antibody data of Engelhart et al. 2022 (doi:10.1038/s41597-022-01779-4), copy in the FLAb collection.